Measured values as given in US7642239B2, “Inhibition of placenta growth factor (PLGF) mediated metastasis and/or angiogenesis” (Center for Molecular Medicine and Immunology, priority 2005, dated 2010).

Columns and labels:
Format in all cases: cell-based, human
Details in all cases: VEGF 2 nM ± test agent; relative to VEGF-only value; unit assumed
MDA-MB-468 = test: Wound-healing (motility) assay, MDA-MB-468
Protocol: (§1) MCF-7, MDA-MB-23 1, and MDA-MB-468 breast tumor cell lines or HECs were seeded onto sterile glass coverslips in Petri dishes or six-well plates. When the cells were 70-80% confluent, the monolayers were scratched with a sterile plastic pipet tip.
(§2) Inhibitor concentrations were 50 μM PD98059 (PD98) (mitogen activated protein kinase-kinase 1 [MEK1] inhibitor), 5 nM Wortmannin (phosphatidyl inositol 3 kinase [PI3K] inhibitor), or human recombinant soluble Flt-1 (sFlt-1) (R&D Systems). […] Cells were pre-incubated with PD98 and Wortmannin for 15-30 min before addition of PlGF. Stained (Wright-Giemsa) and mounted coverslips were examined microscopically. Five to ten 100× fields were evaluated by counting the number of cells separated from the wound edges and which appeared to be migrating toward the center of the wound. Results are reported as the average number of cells migrating into the wound/100× field. In some cases data from separate experiments were combined to accommodate inclusion of various treatments in the tables.
(§3) Antibody concentration was 1 μg/ml. MEK1 inhibitor, PD98059 (PD98), 50 μM. PI3K inhibitor, Wortmannin, 5 nM. […] Values for antibody and inhibitor treatments were from separate experiments which included all relevant controls. […] UT denotes untreated controls. *P<0.01 (ANOVA) compared to UT; † P<0.02 (ANOVA) compared to PlGF only. ‡ P<0.001 (ANOVA) compared to PlGF only.

MDA-MB-231 = test: Wound-healing (motility) assay, MDA-MB-231
Protocol: as §1, §2, §3

MCF-7 = test: Wound-healing (motility) assay, MCF-7
Protocol: as §1, §2, §3

Measured: Relative activity

VEGF
100%: all assays above
